# Laboratory results reported in patent US10568926B2, “Use of des-aspartate-angiotensin I to treat patients exhibiting malignant growth, invasive growth, tumor, tumor metastasis or cancer” (dated 2020).
# Tested on: half sulfur mustard-inoculated Balb/c mice
# Test: Survival of half sulfur mustard-inoculated mice
Molecule,"effect on survival of HSM-intoxicated mice (losartan alone, 0.5 nmole/kg)",effect on mortality of half sulfur mustard-inoculated mice (various oral doses daily for 14 days)
CCCCc1nc(Cl)c(CO)n1Cc1ccc(-c2ccccc2-c2nn[nH]n2)cc1,had no effect,
des-aspartate-angiotensin I,,dose-dependently attenuated the mortality
